# Antibody variant affinities, Ab-14 heavy chain, assay B

Antigen: PDVDLGDISGINAS, a 14-residue peptide of the SARS-CoV-2 spike HR2 region.

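Phage display of a naive human antibody library on the peptide gave the parent. These sequences belong to a second round, designed from the earlier measurements on random variants of the parent. Group labels follow the data file (Ctrl: baseline library sampled from a position-specific scoring matrix, with some repeated check sequences; Rand: our label for a block that the file lists under HC and that is probably the random mutants of the ten best first-round binders; En: ensemble of fine-tuned language models; GP: Gaussian process model; GPLM: also part of the Gaussian process libraries; HC: hill climbing; Gen: genetic algorithm; Gibbs: Gibbs sampling; a sequence that several methods proposed may carry one label only). The assay is AlphaSeq: two haploid yeast populations carry antibody and antigen on their surface. Mating (16 h, 30 °C) was followed by selection of diploids and sequencing of their barcodes. The ratio of observed to expected reads was calibrated, replicate by replicate, on BCL2-family standards whose Kd was known from biolayer interferometry. There are six technical replicates.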

Parent scFv Ab-14: VH joined to VL by three GGGGS repeats. Changes lie in the heavy chain CDRs alone.
VH: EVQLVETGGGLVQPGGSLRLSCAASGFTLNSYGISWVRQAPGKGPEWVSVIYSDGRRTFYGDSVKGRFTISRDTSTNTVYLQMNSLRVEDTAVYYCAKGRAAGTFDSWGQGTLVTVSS
VL: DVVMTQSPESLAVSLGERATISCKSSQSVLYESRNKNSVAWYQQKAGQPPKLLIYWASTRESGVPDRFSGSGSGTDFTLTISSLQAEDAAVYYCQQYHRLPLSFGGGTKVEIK

The parent's heavy chain CDRs are GFTLNSYGIS, VIYSDGRRTFYGDSVK, GRAAGTFDS; each variant's own CDRs replace them letter for letter.
Numbers give log10(Kd / nM), so 0 is 1 nM and 3 is 1 µM. Smaller is tighter.
A mean of the replicates is given; it leaves out those without a signal.
"not detected" means that the variant was in the library but no mating with the target was seen in any replicate; the authors take this as a sign of poor binding, and no number exists.

CDR-H1 | CDR-H2 | CDR-H3 | group | log10 Kd (nM), mean | replicates with signal
GFDLNEYGIS | VIYADGMRTAYADSVK | GKNAGTFDI | En_Gen | -0.70 | 6 of 6
GFTLNEYGIS | VIYSDGRRTFYGDSVK | GKAAGTFTS | Ctrl | 2.53 | 1 of 6
GEDLNEYGIS | VIYADGQRTAYDESVK | GKIAGSFFH | En_Gibbs | 2.43 | 1 of 6
SFELNEYGIS | VIYSDGRRTFYGDSVK | GQTAGTFDS | GP_Gibbs | 1.99 | 4 of 6
GTKLNSYGIS | VIYSDGRRTFYGDSVK | GRAAGTFDS | Ctrl | 0.34 | 6 of 6
GFTLNSYGIM | VIYSDGRRTFYDDSVK | GQLAGTTDS | Rand | not detected | 0 of 6
GFQLDEYGIS | VIYADGMRKAYAQNVK | GNLLVIQEG | En_Gibbs | not detected | 0 of 6
GFDLNSYGIS | VIYSDGRRTFYKDSVK | GRTAGTFDK | GP_Gibbs | 0.44 | 6 of 6
GFDLNEYGIS | VIYADGVRTGYQQQVK | GYHSGGLNQ | En_Gibbs | not detected | 0 of 6
GFTLNEYGIS | VIYSDGRRTMYGDSVK | GRTAGTFDS | GPLM_Gen | 0.41 | 6 of 6
GMNLGEYGIS | VIYADGVRQAYVDKVK | GFNGVDGLV | En_Gibbs | not detected | 0 of 6
GFSLNSYGIS | VIYSDGRRTFYADSVK | GRAAGTFDK | GPLM_Gen | 0.06 | 6 of 6
GFDLNEYGIS | VIYADGMRTAYADSVK | GETAGTFDA | En_Gen | 0.19 | 5 of 6
GFTLDSYGIS | VIYSDGRRTFYGDSEK | GRAAGTALS | Rand | not detected | 0 of 6
GFQLNEYGIS | VIYADGMRSEYQDSVK | GGNNSSFKV | En_Gibbs | not detected | 0 of 6
GFNLNSYGIS | VIYSDGRRTFYADSVK | GWEAGTFDS | GPLM_Gibbs | 0.75 | 6 of 6
GFNLNEYGIS | VIYSDGRRTFYGDSVK | GQAAGTFDS | GPLM_Gibbs | 0.13 | 6 of 6
GFELEKYGIS | VIYSDGRRTFYGDSVK | GRAAGTFDS | GP_HC | -0.30 | 6 of 6
GFQLNSYGIS | VIYSDGRRTFYGDQVK | GQTAGTFDE | GP_Gibbs | not detected | 0 of 6
KFTLNEYGIS | VIYSDGRRTFYTDSVK | GRFAGTFDS | GPLM_HC | 2.76 | 4 of 6
GFELNSYGIS | VIYSDGRRTFYGDSVK | GNAAGTFDK | GP_Gen | 1.39 | 5 of 6
GFDVNSYGIS | VIYSDGRRTFYGDSVK | GRAAGWFNS | Rand | 1.62 | 1 of 6
GFRLNEYGIS | VIYSDGRRTFYGDSVK | GRAAGTFDS | GP_HC | 0.70 | 6 of 6
GKDIEEYGIS | VIYADGMRQAYADSVK | GQVVGSGKF | En_Gibbs | not detected | 0 of 6
GFDLNEYGIS | VIYADGVRTFYSDSVK | GEIAGTFDQ | En_HC | -0.40 | 6 of 6
GFKLDEYGIS | VIYADGLRMHYANSVK | GEGAGTFTT | En_Gibbs | 1.60 | 5 of 6
GFNLNSYGIS | VIYSDGRRTFYADSVK | GRSAGTFDS | GPLM_Gibbs | 1.78 | 4 of 6
GFNLDEMGIS | VIYADGKRQVYADSFK | GHFGGNKLN | En_Gibbs | not detected | 0 of 6
GFDLNEYGIS | VIYADGQRTAYADSVK | GETAGTFDL | En_Gen | 0.58 | 6 of 6
GFDLNEYGIS | VIYADGMRTAYTDSVK | GNEAGTFDF | En_HC | -0.04 | 6 of 6
GFTLDSYGIS | VIYSDGRRTFYGDSVK | GEAAGTFDR | GP_HC | 1.49 | 6 of 6
GFQLNEYGIS | VIYSDGRRTFYGDSVK | GRQAGTFDS | GPLM_Gen | 0.47 | 6 of 6
GFDLNEYGIS | VIYADGMRTAYSDSVK | GTNAGTFDI | En_Gen | -0.42 | 6 of 6
GFSLNDYGIS | VIYSDGRRTFYGDSVK | GRAAGTFRS | GPLM_HC | not detected | 0 of 6
GFDLNEYGIS | VIYADGSRTFYADSVK | GENAGSFDQ | En_HC | 0.83 | 5 of 6
GFTLNSYGIS | VIYSDGMRTHYGDSVK | GRAAGTFDS | Ctrl | 2.37 | 3 of 6
GFALNEYGIS | VIYSDGRRTFYGDSVK | GRMAGTFDT | GP_Gen | 0.66 | 6 of 6
GFDLNEYGIS | VIYADGRRTAYADSVK | GEAAGTFDK | En_HC | -0.47 | 6 of 6
GFTLNDYGIS | VIYSDGRRTFYSDSVK | GKAAGTFDS | GPLM_Gen | 0.35 | 6 of 6
GFNLQEYGVS | VIYADGIRTQYTNDVK | GLYSGAFVM | En_Gibbs | not detected | 0 of 6
GFDLNEYGIS | VIYADGRRTFYTDSVK | GAHAGTFDQ | En_HC | -0.23 | 6 of 6
GFELNSYGIS | VIYSDGKRTFYKDSVK | GRTAGTFDS | GPLM_Gibbs | 1.32 | 6 of 6
GFSLDDYGIS | VIYADGMRKAYVDEVK | GYVAGTFDI | En_Gibbs | -0.14 | 6 of 6
GFSLNEYGIS | VIYSDGRKTFYGDSVK | GRTAGTFDS | GPLM_Gen | 0.21 | 4 of 6
GFTLNSYGIS | VIYSDGKRTFYADSVK | GRAAGTFDT | GPLM_Gibbs | 0.81 | 6 of 6

Repeated from above, the 5 best binders with a signal in all replicates:

CDR-H1 | CDR-H2 | CDR-H3 | group | log10 Kd (nM), mean | replicates with signal
GFDLNEYGIS | VIYADGMRTAYADSVK | GKNAGTFDI | En_Gen | -0.70 | 6 of 6
GFDLNEYGIS | VIYADGRRTAYADSVK | GEAAGTFDK | En_HC | -0.47 | 6 of 6
GFDLNEYGIS | VIYADGMRTAYSDSVK | GTNAGTFDI | En_Gen | -0.42 | 6 of 6
GFDLNEYGIS | VIYADGVRTFYSDSVK | GEIAGTFDQ | En_HC | -0.40 | 6 of 6
GFELEKYGIS | VIYSDGRRTFYGDSVK | GRAAGTFDS | GP_HC | -0.30 | 6 of 6

Values of this round are not directly comparable with the first-round values of the same sequences.
The parent sequence was in this pool as ten entries: three were never detected, three once, and four in most replicates, with averages from 0.34 to 2.37.
Background: pairings of all heavy chain designs with three empty control strains gave a value in 1% of cases (median 2.08, 5th percentile 0.84). Values in that range, when seen in few replicates, are hard to tell from nonspecific mating.
In the paper, a design with two or fewer of six values counts as a poor binder.

The measurements come from Li et al. 2023 (doi:10.1038/s41467-023-39022-2) through the FLAb antibody collection.